Target: E. coli MenE (ecMenE) (Escherichia coli, UniProt P37353)
Assay type: biochemical

Amino acid sequences for entries named in this document (tags omitted). A change or cut given only in a name is not applied to a line headed by its entry.
UniProt P37353: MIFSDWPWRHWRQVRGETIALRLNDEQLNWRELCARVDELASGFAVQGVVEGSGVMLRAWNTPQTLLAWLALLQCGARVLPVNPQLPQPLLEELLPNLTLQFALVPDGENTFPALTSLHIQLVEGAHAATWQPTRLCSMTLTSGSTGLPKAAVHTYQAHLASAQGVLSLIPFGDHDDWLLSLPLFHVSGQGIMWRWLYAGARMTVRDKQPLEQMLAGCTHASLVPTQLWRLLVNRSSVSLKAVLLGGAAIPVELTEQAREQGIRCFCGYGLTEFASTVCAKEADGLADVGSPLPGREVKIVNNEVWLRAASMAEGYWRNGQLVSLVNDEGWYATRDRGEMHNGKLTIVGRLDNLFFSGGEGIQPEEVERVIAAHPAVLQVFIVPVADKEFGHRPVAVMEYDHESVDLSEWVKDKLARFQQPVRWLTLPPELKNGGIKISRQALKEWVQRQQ

## MSB-AMS [compound 2]
  IC50: > 100 µM

From PMC4624480 (Biochemistry, 2015)
